Data from published antibiotic growth screens (doi:10.1038/s41589-023-01349-8).
This is one part of the list.

Each molecule was assayed on A. baumannii ATCC 17978 (assay: relative growth (fraction of control); higher = less inhibition). Details: 50 µM.
`CC[C@H]1OC(=O)[C@H](C)[C@@H](O[C@H]2C[C@@](C)(OC)[C@@H](O)[C@H](C)O2)[C@H](C)[C@@H](O[C@@H]2O[C@H](C)C[C@H](N(C)C)[C@H]2O)[C@](C)(O)C[C@@H](C)[C@@H]2N[C@@H](COCCOC)O[C@H]([C@H]2C)[C@]1(C)O` gave a relative growth of 0.587.
In the case of `O=C(O)[C@@H]1CCCNC1`, the relative growth was 0.972.
`C[C@H](O)C(=O)Nc1c(I)c(C(=O)NC(CO)CO)c(I)c(C(=O)NC(CO)CO)c1I` showed a relative growth of 1.14.
For `C=CCNS(=O)(=O)c1cccc2nonc12`, the relative growth was 0.932.
`CCCCCC(C)N.O=S(=O)(O)O` (stereo not drawn) was tested, and the relative growth was 1.03.
`COc1ccccc1-c1ccc2c(c1)O[C@H](CN(C)C(=O)c1ccncc1)[C@@H](C)CN([C@@H](C)CO)S2(=O)=O` showed a relative growth of 1.08.
`CCCNC(=O)Nc1ccc2c(c1)C(=O)N(C)C[C@H](OC)[C@H](C)CN(C(=O)C1CCOCC1)[C@@H](C)CO2` showed a relative growth of 0.89.
Work on `CSCc1nc(=O)cc(C(=O)O)[nH]1` yielded a relative growth of 1.06.
`O=C(C[C@@H]1C=C[C@H](NC(=O)C2CCOCC2)[C@@H](CO)O1)NCCc1cscn1` showed a relative growth of 1.09.
`C[C@@H]1CN([C@@H](C)CO)S(=O)(=O)c2ccc(C#CC3CC3)cc2O[C@H]1CN(C)Cc1ccccc1F` showed a relative growth of 1.2.
Molecule `COc1ccc([C@@H]([C@H](Cc2ccccc2)OC(C)=O)N2C[C@H]3[C@@H]([C@@H](O)c4ccccc4)ON(C)[C@H]3[C@@H]2Cc2ccccc2)cc1` has a relative growth of 0.989.
Molecule `CC(=O)OC1CC2CCC1(C)C2(C)C` (stereo not drawn) has a relative growth of 1.15.
In the case of `C[C@H](O)C#Cc1ccc2c(c1)O[C@@H](CN(C)C(=O)c1ccncc1)[C@@H](C)CN([C@@H](C)CO)S2(=O)=O`, the relative growth was 1.03.
For `C[C@H](O)C#Cc1ccc2c(c1)O[C@H](CN(C)C(=O)CN(C)C)[C@@H](C)CN([C@H](C)CO)S2(=O)=O`, the relative growth was 0.955.
`C[C@H]1CN([C@@H](C)CO)S(=O)(=O)c2ccc(-c3cccc(F)c3)cc2O[C@H]1CN(C)S(C)(=O)=O` showed a relative growth of 0.985.
Work on `Cc1cc(Nc2cc(C)on2)nc([C@H]2CCN(C(=O)CN)C2)n1` yielded a relative growth of 0.885.
`Cn1cnc(S(=O)(=O)N2C[C@H](O)COC[C@@H]3O[C@@H](CC(=O)NCc4ccc(F)cc4)CC[C@H]32)c1` showed a relative growth of 0.97.
Work on `CC(C)CC(=O)N[C@H](C(=O)N[C@H](C(=O)N[C@@H](CC(C)C)[C@@H](O)CC(=O)N[C@@H](C)C(=O)N[C@@H](CC(C)C)[C@@H](O)CC(=O)O)C(C)C)C(C)C` yielded a relative growth of 0.916.
In the case of `C=c1nnsc1=C1NC(c2cc(C)on2)=NO1`, the relative growth was 0.918.
In the case of `COCC(=O)Nc1ccc2c(c1)C(=O)N(C)C[C@@H](OC)[C@@H](C)CN(Cc1cccc(F)c1)[C@@H](C)CO2`, the relative growth was 0.85.
Work on `O=C(C[C@H]1CC[C@@H](NS(=O)(=O)c2ccc(F)cc2)[C@H](CO)O1)NCc1ccc(Cl)c(Cl)c1` yielded a relative growth of 1.01.
`CCN(CC)CCNC(=O)COc1ccc(OC)cc1.Cl` gave a relative growth of 0.942.
With `COC(CNC1=Nc2ncccc2OC1)OC` the relative growth was 0.946.
`CNC(=O)CN(C#N)c1nc(C)cc(C)n1` gave a relative growth of 1.05.
Molecule `COc1ccc(NC(=O)N[C@@H]2CC[C@@H](CCNC(=O)CN3CCOCC3)O[C@H]2CO)cc1` has a relative growth of 1.01.
`COc1ccccc1S(=O)(=O)N[C@@H]1CC[C@@H](CCNC(=O)C2CC2)O[C@H]1CO` showed a relative growth of 1.06.
`COc1ccccc1CNC(=O)C[C@H]1CC[C@H]2[C@@H](COC[C@H](O)CN2C(=O)Nc2ccc(F)cc2)O1` was tested, and the relative growth was 1.02.
`NC(=O)[C@H]1[C@H](C(=O)O)[C@@H]2C=C[C@H]1C2` showed a relative growth of 0.895.
`O=C(N[C@@H]1CC[C@H](CC(=O)N2CCOCC2)O[C@H]1CO)c1ccc2c(c1)OCO2` showed a relative growth of 1.12.
`COC(=O)c1ccc(O)cc1` gave a relative growth of 1.15.
`OCCC[C@@H](O)c1ccc(OCCO)cc1` showed a relative growth of 1.03.
`C[C@H](CO)N1C[C@H](C)[C@H](CN(C)C(=O)C2CCOCC2)Oc2cc(-c3ccc(C(=O)N(C)C)cc3)ccc2S1(=O)=O` was tested, and the relative growth was 1.04.
In the case of `CO[C@H]1CN(C)C(=O)c2ccc(NC(=O)c3ccccc3)cc2OC[C@H](C)N(C(=O)CN(C)C)C[C@H]1C`, the relative growth was 1.08.
Molecule `COc1cccc(NC(=O)N[C@H]2CC[C@@H](CC(=O)N3CCN(C)CC3)O[C@@H]2CO)c1` has a relative growth of 0.938.
`COc1ccc(C#Cc2ccc3c(c2)O[C@@H](CN(C)C(C)=O)[C@@H](C)CN([C@H](C)CO)S3(=O)=O)cc1` showed a relative growth of 1.08.
`CC(=O)O[C@@H]1CC2C(C)(C)C(=O)C3OC3[C@]2(C)C2CC[C@@]3(C)[C@H](c4ccoc4)OC(=O)C4OC43[C@@]21C` (stereo partly drawn) showed a relative growth of 1.34.
Molecule `Cc1ccc(S(=O)(=O)NCCOc2nc(N(C)C)nc(N3CCOCC3)n2)cc1` has a relative growth of 1.03.
For `C=CCN1C(=O)[C@]2(O[C@H](CCO)[C@@H]([Si](C)(C)c3ccc(OC)cc3)[C@@H]2C)c2cc(N(C=O)c3ccccc3)ccc21`, the relative growth was 1.07.
`CC(C)NC(=O)N[C@H]1C=C[C@H](CC(=O)NCCCN(C)C)O[C@@H]1CO` was tested, and the relative growth was 1.04.
`CNC(=O)C[C@H]1CC[C@@H]2[C@H](COC[C@H](O)CN2C(=O)c2ccc3c(c2)OCO3)O1` showed a relative growth of 0.97.
For `CC(=O)N[C@H]1[C@H]([C@H](O)[C@H](O)CO)O[C@](O)(C(=O)O)C[C@@H]1O`, the relative growth was 0.946.
`NC(=O)c1c(Cl)ncc2c1NCC2` showed a relative growth of 0.95.
With `Nc1ccc(S(=O)(=O)Nc2ccnn2-c2ccccc2)cc1` the relative growth was 1.04.
`O=C(C[C@@H]1C=C[C@@H](NC(=O)c2ccncc2)[C@H](CO)O1)NCc1ccncn1` gave a relative growth of 1.12.
Work on `O=C(NCC(O)CO)c1c(I)c(C(=O)NCC(O)CO)c(I)c(N(CCO)C(=O)CO)c1I` (stereo not drawn) yielded a relative growth of 1.11.
Molecule `CCC(=O)c1c(O)cc(O)cc1O` has a relative growth of 1.14.
`CCc1c(C)[nH]c2c1C(=O)C(CN1CCOCC1)CC2.Cl` (stereo not drawn) was tested, and the relative growth was 0.935.
Work on `C[C@@H](O)/C=C/c1cccc[n+]1C` yielded a relative growth of 1.16.
`Cc1n[nH]c(=O)nc1NCCCOC(C)C` was tested, and the relative growth was 0.905.
With `CCOc1ccnc2c1c(=O)n(CC(N)=O)c(=O)n2C` the relative growth was 1.22.
In the case of `CNC(=O)C[C@@H]1CC[C@@H]2[C@H](COC[C@H](O)CN2C(=O)c2ccccn2)O1`, the relative growth was 0.862.
`CN(C)C(=O)C[C@@H]1CC[C@H](NC(=O)C2CCOCC2)[C@@H](CO)O1` gave a relative growth of 0.989.
For `COc1ccc(S(=O)(=O)N(C)C[C@H]2Oc3cc(C#CC4CCCC4)ccc3S(=O)(=O)N([C@@H](C)CO)C[C@@H]2C)cc1`, the relative growth was 1.09.
